Molecules are shown by their SMILES.

This is an account of results in patent publication US12435062B2, “Amide compounds and uses thereof” (HUTCHISON MEDIPHARMA LIMITED, priority 2020, dated 2025).

This assay has as its system Ba/F3^BCR-FMS-11 cells. The assay is described as follows: Cell proliferation experiment (Ba/F3^BCR-FMS-11, cckit-8). It counts as cell-based, mouse. Particulars: Ba/F3^BCR-FMS-11 cell proliferation, 72 hours. The protocol: Cell Proliferation Experiment
Ba/F3^BCR-FMS-11, mouse primary B lymphocytes stably expressing the BCR-FMS fusion gene. The cells were cultured in an RPMI 1640 medium containing 10% FBS.
2. Reagents and instruments
• cckit-8 kit: Dojindo, 9 CK04; • Envision: Perkin Elmer; • Cell culture plate: Facol, 9353027. 3. Experimental steps
The BCR-FMS fusion gene was transfected into Ba/F3 cells, and the cell line Ba/F3^BCR-FMS-11 that stably expresses BCR-FMS and grows depending on CSF-1R was screened. Ba/F3^BCR-FMS-11 cell proliferation experiments is completed by using the Cell Counting kit cckit-8 in a 96-well plate. In a 96-well plate, 5000/well of Ba/F3^BCR-FMS-11 cells were inoculated at 100 μL/well. […] 10 μL of the compound dilutions with the above 8 concentrations were added to the culture cell wells. The culture was incubated in a 37° C. and 5% CO2 cell incubator for 72 hours. […] The optical density absorption value at 450 nm of each well was detected by using Perkin Elmer Envision instrument.
wherein • Drug-treated well read-out: indicating the optical density signal of a cell well with the test compound treatment. • Cell well read-out: indicating the optical density signal of a cell well not treated with the test compound (only 0.5% DMSO). • Background read-out: indicating the optical density signal of a well with the cell medium. […]

In general, IC50 refers to the concentration needed to halve the response being measured. In turn, `Cn1cc(-c2cc(Oc3ccc(NC(=O)c4cnc5ccccn5c4=O)nc3)ccn2)cn1` [Compound 28] displayed an IC50 of 14 nM.
